# PubChem BioAssay AID2783 (National Center for Advancing Translational Sciences (NCATS), 2010)
# By UniProt entry, the sequences of proteins in these tests, tags left out.
# UniProt Q03164, whole entry, looked up: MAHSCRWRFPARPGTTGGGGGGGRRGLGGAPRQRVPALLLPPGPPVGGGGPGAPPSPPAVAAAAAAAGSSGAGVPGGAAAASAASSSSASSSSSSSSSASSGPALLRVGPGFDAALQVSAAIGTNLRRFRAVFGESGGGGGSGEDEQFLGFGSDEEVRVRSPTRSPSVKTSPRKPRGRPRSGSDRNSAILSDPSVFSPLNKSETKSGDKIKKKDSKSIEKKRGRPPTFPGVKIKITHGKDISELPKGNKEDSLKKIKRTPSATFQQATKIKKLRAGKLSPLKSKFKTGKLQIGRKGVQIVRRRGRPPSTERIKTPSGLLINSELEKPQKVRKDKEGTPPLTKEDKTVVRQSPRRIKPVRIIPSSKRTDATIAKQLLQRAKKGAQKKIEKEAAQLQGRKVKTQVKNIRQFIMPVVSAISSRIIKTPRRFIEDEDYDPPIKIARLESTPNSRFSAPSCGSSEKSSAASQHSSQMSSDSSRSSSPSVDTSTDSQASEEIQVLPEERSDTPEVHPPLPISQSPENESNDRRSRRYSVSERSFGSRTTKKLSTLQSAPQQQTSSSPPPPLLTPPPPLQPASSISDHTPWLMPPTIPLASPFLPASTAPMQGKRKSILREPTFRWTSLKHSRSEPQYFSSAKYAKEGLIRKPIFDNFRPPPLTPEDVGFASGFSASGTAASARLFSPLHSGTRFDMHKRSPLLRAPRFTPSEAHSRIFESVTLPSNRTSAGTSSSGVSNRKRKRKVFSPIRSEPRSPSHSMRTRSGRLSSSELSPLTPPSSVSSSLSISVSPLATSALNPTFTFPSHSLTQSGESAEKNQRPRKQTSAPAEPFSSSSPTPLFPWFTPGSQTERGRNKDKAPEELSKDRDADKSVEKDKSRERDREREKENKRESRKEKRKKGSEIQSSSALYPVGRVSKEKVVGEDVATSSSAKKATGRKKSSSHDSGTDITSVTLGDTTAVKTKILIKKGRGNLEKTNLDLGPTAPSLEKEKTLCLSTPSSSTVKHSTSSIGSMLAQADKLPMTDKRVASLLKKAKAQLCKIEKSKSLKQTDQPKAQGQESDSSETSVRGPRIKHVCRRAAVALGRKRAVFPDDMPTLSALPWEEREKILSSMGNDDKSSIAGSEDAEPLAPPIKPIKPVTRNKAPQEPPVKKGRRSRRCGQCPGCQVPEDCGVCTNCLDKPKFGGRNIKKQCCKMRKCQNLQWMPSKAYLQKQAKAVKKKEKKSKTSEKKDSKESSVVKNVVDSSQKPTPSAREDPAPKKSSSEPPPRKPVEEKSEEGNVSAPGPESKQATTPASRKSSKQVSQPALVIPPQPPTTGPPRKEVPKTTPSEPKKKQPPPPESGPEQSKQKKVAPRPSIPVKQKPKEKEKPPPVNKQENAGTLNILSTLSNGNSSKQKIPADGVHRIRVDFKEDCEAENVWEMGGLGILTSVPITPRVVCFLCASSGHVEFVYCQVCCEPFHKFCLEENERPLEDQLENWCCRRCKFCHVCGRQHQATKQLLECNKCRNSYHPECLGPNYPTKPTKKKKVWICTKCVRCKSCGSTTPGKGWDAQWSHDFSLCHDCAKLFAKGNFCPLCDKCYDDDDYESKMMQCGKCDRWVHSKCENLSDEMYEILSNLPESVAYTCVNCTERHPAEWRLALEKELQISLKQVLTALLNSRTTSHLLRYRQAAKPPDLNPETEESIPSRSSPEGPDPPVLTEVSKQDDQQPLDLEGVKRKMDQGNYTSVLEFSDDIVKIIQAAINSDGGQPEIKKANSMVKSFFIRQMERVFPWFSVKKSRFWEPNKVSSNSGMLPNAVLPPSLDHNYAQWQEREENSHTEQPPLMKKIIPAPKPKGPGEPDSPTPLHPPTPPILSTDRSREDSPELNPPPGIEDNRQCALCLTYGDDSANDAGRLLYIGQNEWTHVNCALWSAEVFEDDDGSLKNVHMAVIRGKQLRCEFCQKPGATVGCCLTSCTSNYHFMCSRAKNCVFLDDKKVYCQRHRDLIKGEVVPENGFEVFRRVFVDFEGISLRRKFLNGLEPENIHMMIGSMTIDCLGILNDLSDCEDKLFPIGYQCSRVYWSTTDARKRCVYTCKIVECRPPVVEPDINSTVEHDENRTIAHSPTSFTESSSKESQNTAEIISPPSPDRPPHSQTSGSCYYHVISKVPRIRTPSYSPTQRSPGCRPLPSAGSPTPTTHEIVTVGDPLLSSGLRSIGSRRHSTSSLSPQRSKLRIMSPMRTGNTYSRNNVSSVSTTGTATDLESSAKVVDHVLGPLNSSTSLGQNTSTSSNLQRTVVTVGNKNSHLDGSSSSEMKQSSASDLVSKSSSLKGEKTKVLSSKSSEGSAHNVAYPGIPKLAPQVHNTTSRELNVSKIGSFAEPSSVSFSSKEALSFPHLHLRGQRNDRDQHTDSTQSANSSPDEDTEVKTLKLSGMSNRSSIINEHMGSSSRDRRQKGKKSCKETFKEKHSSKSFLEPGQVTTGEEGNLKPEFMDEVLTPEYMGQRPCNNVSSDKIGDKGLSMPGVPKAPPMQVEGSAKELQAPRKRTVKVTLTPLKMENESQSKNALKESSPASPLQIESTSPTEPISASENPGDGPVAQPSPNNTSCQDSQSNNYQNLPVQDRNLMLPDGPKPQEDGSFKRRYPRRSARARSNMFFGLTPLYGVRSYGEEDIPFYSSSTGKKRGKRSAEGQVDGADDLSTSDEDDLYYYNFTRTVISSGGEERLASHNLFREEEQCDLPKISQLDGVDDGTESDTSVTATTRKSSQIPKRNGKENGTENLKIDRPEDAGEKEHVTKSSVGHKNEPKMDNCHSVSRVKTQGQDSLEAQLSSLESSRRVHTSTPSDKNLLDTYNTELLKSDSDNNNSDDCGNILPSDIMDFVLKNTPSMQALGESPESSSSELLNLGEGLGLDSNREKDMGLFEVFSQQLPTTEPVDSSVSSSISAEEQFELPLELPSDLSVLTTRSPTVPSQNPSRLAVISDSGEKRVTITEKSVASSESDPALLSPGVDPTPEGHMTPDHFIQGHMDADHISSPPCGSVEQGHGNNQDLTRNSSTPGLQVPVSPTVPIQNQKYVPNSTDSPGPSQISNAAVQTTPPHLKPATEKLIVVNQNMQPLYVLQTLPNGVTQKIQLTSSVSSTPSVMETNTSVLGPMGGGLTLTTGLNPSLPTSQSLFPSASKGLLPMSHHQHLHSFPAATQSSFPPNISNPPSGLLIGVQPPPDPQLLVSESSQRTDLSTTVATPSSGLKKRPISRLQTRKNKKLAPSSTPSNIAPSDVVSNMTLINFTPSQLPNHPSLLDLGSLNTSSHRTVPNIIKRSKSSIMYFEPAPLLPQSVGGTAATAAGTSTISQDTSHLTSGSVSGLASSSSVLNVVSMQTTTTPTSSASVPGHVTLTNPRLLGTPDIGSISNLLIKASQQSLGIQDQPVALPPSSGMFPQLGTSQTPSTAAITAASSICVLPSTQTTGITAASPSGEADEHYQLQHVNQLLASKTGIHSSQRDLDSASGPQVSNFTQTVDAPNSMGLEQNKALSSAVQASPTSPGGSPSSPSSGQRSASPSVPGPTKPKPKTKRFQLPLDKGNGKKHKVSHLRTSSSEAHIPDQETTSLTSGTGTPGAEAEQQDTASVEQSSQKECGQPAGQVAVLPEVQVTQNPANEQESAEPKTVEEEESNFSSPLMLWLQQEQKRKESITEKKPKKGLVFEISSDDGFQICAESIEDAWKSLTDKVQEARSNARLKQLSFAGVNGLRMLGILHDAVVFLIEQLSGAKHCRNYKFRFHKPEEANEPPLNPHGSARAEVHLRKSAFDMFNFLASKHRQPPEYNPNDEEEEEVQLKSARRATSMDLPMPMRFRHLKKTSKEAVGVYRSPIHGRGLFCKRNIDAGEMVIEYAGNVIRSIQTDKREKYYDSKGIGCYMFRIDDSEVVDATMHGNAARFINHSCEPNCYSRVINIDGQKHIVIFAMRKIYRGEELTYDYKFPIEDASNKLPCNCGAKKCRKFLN
# This is a selection; strong and weak results do not stand in their true shares. Inconclusive results are not listed. The source made the active and inactive calls. Calls follow the shape of the dose curve; as a rule, active = well fitted inhibition curve with a large enough effect in the polarisation, with a control signal flat (not every such curve was filed as active); inconclusive = small, poorly fitted or top-dose-only effect, or effect the other way, or a change in a side signal; inactive = no such curve, though single readings can be large or run the other way; the % refers to the polarisation.
# Biological target: Histone-lysine N-methyltransferase 2A (Homo sapiens) (UniProt Q03164)
# Assay: Confirmation of Inhibitors Targeting the Menin-MLL Interaction in MLL Related Leukemias: Competition With Fluorescein Labeled MLL-derived Peptide
# Settings: Fluorescence polarization, fluorescein-MLL peptide displacement from menin; at 100 µM (top of the series)
# % is scaled to controls: 0 for no effect and ±100 for the full control effect.
compound,measurement,value
O=[As](O)(c1cccs1)c1cccs1,"activity change, negative = inhibition",inactive: -10.9%
